Measurements reported in publication PMC5667422 (Theranostics, 2017).

Experiments:
[1] = tested on: subcutaneous A549 tumor xenografts
[2] = tested on: orthotopic A549 NSCLC tumors; conditions: ^18F-FDG 60 min p.i.
[3] = tested on: osseous A549 tumor xenografts
[4] = A549 osseous tumor model, ^18F-FDG

T/N values in subcutaneous, orthotopic and osseous tumors ([1]; ^18F-FDG, all three A549 models, printed 'less than or close to 1'): ≤ 1
background uptake in muscle (PET ROI) ([1]; subcutaneous A549 model, ^18F-FDG 60 min p.i.): 3.11 ± 1.05 % ID/g
T/N value (N: normal muscle) ([1]; subcutaneous A549 tumor, ^18F-FDG 60 min p.i., n = 5): 1.15
tumor uptake (PET ROI) ([2]; n = 5): 1.39 ± 0.075 %ID/g
T/N ratio (N: normal lung tissue) ([2]; orthotopic A549 tumor): 0.74
bone uptake [3, 4]: 2.37 ± 0.53 %ID/g
thigh muscle uptake [3, 4]: 1.65 ± 0.29 %ID/g
osseous tumor uptake ([3]; A549 osseous tumor, ^18F-FDG 60 min p.i.): 3.78 ± 0.73 %ID/g
SMILES: OC[C@H]1OC(O)[C@H](F)[C@@H](O)[C@@H]1O (some centres unmarked) [^18F-FDG, ^18F-fluorodeoxyglucose]
